Legend:
HeLa cells = settings: 0.3 × 10^6 intact cells per well, PBS, 37 °C, 5% CO2, samples at 15, 30, 45, 60 min, RP18 HPLC, 220 nm
Protocol: (§1) In a 6-well-plate with 0.3 × 10^6 cells per well the different cell types were cultivated overnight under optimized conditions. Then medium was removed by aspiration (adherent cell) or centrifugation (suspension cells) and washed cells were incubated with CPPs in phosphate buffer solution (PBS). Incubation was performed under the same conditions as the transduction of complexes with the cargo for 1 h at 37 °C in a humidified atmosphere containing 5% CO2. After 15, 30, 45 and 60 min samples of 200 µL were taken and the proteolytic reaction was stopped by addition of 50 µL 37 perc. HCl. After freezing and lyophilization samples were analyzed by analytical high performance liquid chromatography (HPLC), using a RP18 column (Vydac 218TP). In case of MPGβ, for elution a gradient was used from 10% acetonitrile and 90% water, both containing 0.1% trifluoroacetic acid to 60% acetonitrile and 40% water in 50 min. […] The flow rate was 1.0 ml/min and detection was performed at 220 nm.

NIH-3T3 cells = settings: 0.3 × 10^6 intact cells per well, PBS, 37 °C, 5% CO2, samples at 15, 30, 45, 60 min, RP18 HPLC, 220 nm
Protocol: as §1

[1] = tested on: most of the cells investigated; test: Proteolytic stability of CPPs compared over the cells investigated; type: in vitro ADME; settings: incubation with intact cells up to 60 min, PBS, 37 °C, HPLC
Protocol: as §1

Leishmania cells = settings: intact cells; cited from earlier work
Source text: Chosen CPPs have different chemical properties, i.e. distribution of charged, polar and non-polar residues, leading to different amphiphilicity and hydrophobicity. […] Mammalian cell lines can also degrade CPPs.

Leishmania tarentolae = test: Cytotoxicity test for Leishmania tarentolae (morphology and motility); type: cell-based; settings: 1 h in PBS with increasing concentrations, changes in morphology and motility, microscope 400-fold
Protocol: Leishmania cells were cultivated as described previously, resuspended in PBS and treated with increasing concentrations of cocktails and CPPs for 1 h. Cytotoxic effects were monitored by changes in morphology and motility observed using a microscope at 400-fold magnification.

Q: With `CC[C@H](C)[C@H](NC(=O)[C@H](CCCCN)NC(=O)[C@@H](NC(=O)[C@H](CCC(N)=O)NC(=O)[C@@H](N)CCCNC(=N)N)[C@@H](C)CC)C(=O)N[C@@H](Cc1c[nH]c2ccccc12)C(=O)N[C@@H](Cc1ccccc1)C(=O)N[C@@H](CCC(N)=O)C(=O)N[C@@H](CC(N)=O)C(=O)N[C@@H](CCCNC(=N)N)C(=O)N[C@@H](CCCNC(=N)N)C(=O)N[C@@H](CCSC)C(=O)N[C@@H](CCCCN)C(=O)N[C@@H](Cc1c[nH]c2ccccc12)C(=O)N[C@@H](CCCCN)C(=O)N[C@@H](CCCCN)C(=O)O` [Penetratin (Antennapedia)] as the compound, how does the “time within which the CPP is cleaved by HeLa cells” value (HeLa cells) read?
A: ≤ 60 min

Q: And the “time within which the CPP is cleaved by NIH-3T3 cells” value (NIH-3T3 cells)?
A: ≤ 60 min

Q: What about the “relative proteolytic stability among the CPPs” value [1] of the same compound?
A: most labile

Q: What about the “time within which the CPP is fully degraded by Leishmania cells” value (Leishmania cells) of the same compound?
A: ≤ 60 min

Q: And the “Cytotoxicity in Leishmania tarentolae” value (Leishmania tarentolae)?
A: ≤ 10 µM

Source: article PMC3816687, “Relationships between Cargo, Cell Penetrating Peptidesand Cell Type for Uptake of Non-Covalent Complexes into Live Cells” (Pharmaceuticals, 2013)
